Source: patent publication US20230021419A1, “BICYCLIC PEPTIDE LIGANDS SPECIFIC FOR IL-17” (BicycleTx Limited, priority 2019, published 2023)

Target: T1, IL-17A (Homo sapiens, UniProt Q16552)
T1 sequence (Q16552 24-155): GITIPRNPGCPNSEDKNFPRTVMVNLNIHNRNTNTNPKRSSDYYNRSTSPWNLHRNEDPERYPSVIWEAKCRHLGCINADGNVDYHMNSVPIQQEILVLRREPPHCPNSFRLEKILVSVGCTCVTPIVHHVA
Assay: IL-17A binding assay (method analogous to WO 2011/141823)
Conditions: read-out: IL-17A Affinity
Protocol: IL-17A binding was determined using an analogous method to that described in WO 2011/141823.
Selected peptide ligands of the invention were tested in the above mentioned IL-17A binding assay and the results are shown in Table 2: […]

Row | Substance | Kd [nM]
1 | (SEQ ID NO: 2)-[Sar6]-[K(Fl)] [BCY14461] | 7.9
2 | (SEQ ID NO: 35)-[Sar6]-[K(Fl)] [BCY14428] | 1.5
3 | (SEQ ID NO: 36)-[Sar6]-[K(Fl)] [BCY14427] | 1.4
4 | CiDTDPELCiiRF[tBuAla]GLDCiii [BCY13653] | 26.8
5 | CiDTDPELCiiR[2FuAla]LGLDCiii [BCY13635] | 232
6 | CiDTDPELCii[Cav]FLGLDCiii [BCY13641] | 50.4

Target: T1, IL-17A
Assay: Human IL-17A fluorescence polarization (FP) competition
Type: binding
Conditions: tracer BCY13351; 50 nM IL-17A; 1 nM tracer; 25° C.
Protocol: Human IL-17A Fluorescence Polarization (FP) Competition
Affinity determination by fluorescence polarization (FP) competition. Bicycles were screened to determine affinity (Ki) in a fluorescence polarisation assay where in competition with a bicycle labelled with fluorescein (referred to as tracer) with a known affinity for IL-17A. Peptides were diluted to an appropriate concentration in assay buffer (PBS+0.01% Tween20, adjusted to pH7.4 using NaOH (1M)) with a maximum of 1% DMSO, then serially diluted 1 in 2 into assay buffer. Into black 384-well low volume plates, 5 μL of diluted peptide was added to the plate followed by 10 μL of IL-17A at a fixed concentration (75 nM IL-17A for tracer BCY13196, 50 nM IL-17A for tracer BCY13351), then 10 μL tracer added to a final concentration of 1 nM. Measurements were conducted on a BMG PHERAstar FS equipped with an “FP 485 520 520” optic module which excites at 485 nm and detects parallel and perpendicular emission at 520 nm. The PHERAstar FS was set at 25° C. with 200 flashes per well and a positioning delay of 0.1 second, with each well measured at 5 to 10 minute intervals for 60 minutes. The gain used for measurements was determined at the point of experiment on a tracer alone well. Data analysis was performed in Dotmatics where mP values were fit to the Cheng Prusoff equation in order to generate a Ki value.
BCY13196: [Fl]-ACPQDLELCTFLFGDCA (SEQ ID NO: 39);
BCY13351: [Fl]-G-[Sar5]-ACDTDPELCRFLGLDCA (SEQ ID NO: 40); and
BCY13352: ACEGDPELCRFLGLECA-[Sar6]-K-[Fl] (SEQ ID NO: 41);
wherein Fl represents fluorescein and Sar represents sarcosine.
Selected peptide ligands of the invention were tested in the above mentioned IL-17A human fluorescence polarization (FP) competition assay and the results are shown in Table 1: […]

Row | Substance | Ki [nM]
7 | CiDTDPELCiiAFLGLDCiii [BCY13208] | 36.3
8 | CiDTDPELCiiCR[3FPhe]LGLDCiii [BCY13214] | 40.5
9 | CiDTDPELCiiRFLGIDCiii [BCY13221] | 29.9
10 | CiDTDPELCiiRFLGLDCiii [BCY13202] | 13.6
11 | CiDTDPELCiiRFLGVDCiii [BCY13222] | 62.9
12 | CiDTDPELCiiRFLG[C5A]DCiii [BCY13248] | 19.6
13 | CiDTDPELCiiRFLG[Cba]DCiii [BCY13247] | 21.2
14 | CiDTDPELCiiRFLG[tBuAla]DCiii [BCY13220] | 14.4
15 | CiDTDPELCiiRFLNLDCiii [BCY13219] | 114
16 | CiDTDPELCiiRFL[dA]LDCiii [BCY13201] | 23
17 | CiDTDPELCiiRFL[dE]LDCiii [BCY13647] | 28.7
18 | CiDTDPELCiiRFL[dV]LDCiii [BCY13648] | 23
19 | CiDTDPELCiiRF[Cba]GLDCiii [BCY13643] | 17
20 | CiDTDPELCiiR[2NaI]LGLDCiii [BCY13216] | 1520
21 | CiDTDPELCiiR[2PaI]LGLDCiii [BCY13210] | 495
22 | CiDTDPELCiiR[3PaI]LGLDCiii [BCY13211] | 572
23 | CiDTDPELCiiR[4FPhe]LGLDCiii [BCY13215] | 26.1
24 | CiDTDPELCiiR[4PaI]LGLDCiii [BCY13212] | 1200
25 | CiDTDPELCiiR[Thi]LGLDCiii [BCY13654] | 58.7
26 | CiDTDPELCiiSFLGLDCiii [BCY13651] | 41.1
27 | CiDTDPELCii[ADMA]FLGLDCiii [BCY13636] | 25
28 | CiDTDPELCii[Agb]FLGLDCiii [BCY13637] | 32.9
29 | CiDTDPELCii[HArg]FLGLDCiii [BCY13199] | 32.4
30 | CiDTDPELCii[NMeArg]FLGLDCiii [BCY13209] | 26.6
31 | CiDTDPE[Cba]CiiRFLGLDCiii [BCY13642] | 22.7
32 | CiDTDPE[tBuAla]CiiRFLGLDCiii [BCY13652] | 18.7
33 | CiDTD[Aze]ELCiiRFLGLDCiii [BCY13205] | 84.2
34 | CiDTD[HyP]ELCiiRFLGLDCiii [BCY13204] | 58.6
35 | CiDTD[NMeAla]ELCiiRFLGLDCiii [BCY13207] | 31.6
36 | CiDTD[Pip]ELCiiRFLGLDCiii [BCY13206] | 56.6
